Tests used:
[1] = tested on: GPI-PLC in isolated rat adipocytes; settings: for stimulation of GPI-PLC activity: isolated rat adipocytes, FIG. 4 Panels E, G
[2] = tested on: caveolin-1, IRβ and Glut4 in DIGs of rat adipocytes; settings: FIG. 5
[3] = tested on: GPI-PLC in hcDIGs of rat adipocytes; settings: for stimulation of GPI-PLC activity preserved in hcDIGs: hcDIGs prepared from pretreated adipocytes, Panel C; for activation of GPI-PLC by direct incubation of hcDIGs: hcDIGs prepared from untreated adipocytes, Panel A

| Molecule | effect on GPI-PLC in intact rat adipocytes [1] | effect on distribution of caveolin-1, IRβ and Glut4 [2] | stimulation of GPI-PLC activity [1] | stimulation of GPI-PLC activity preserved in hcDIGs [3] [fold] | activation of GPI-PLC by direct incubation of hcDIGs [3] |
| --- | --- | --- | --- | --- | --- |
| CCCCCCCCCCCCP1(=O)O[C@@H]2[C@H](O)[C@@H](O)[C@H](O)[C@@H](O)[C@@H]2O1 (stereo partly drawn) [GPI-2350, myo-inositol-1,2-cyclo-dodecylphosphonic acid] | almost completely down regulates | did not alter significantly | – | – | – |
| CCC1=C(C)CN(C(=O)NCCc2ccc(S(=O)(=O)NC(=O)N[C@H]3CC[C@H](C)CC3)cc2)C1=O [Glimepiride, glimepiride] | – | – | up to 5 fold | 3 | up to 4 fold |
| CCC1=C(C)CN(C(=O)NCCc2ccc(S(=O)(=O)NC(=O)N[C@H]3CC[C@H](C)CC3)cc2)C1=O [glimepiride] | – | not affected | – | – | – |
| Insulin: Human recombinant insulin | – | – | ≤ 3 fold | 1.7 | but not insulin |
